The structures appear in SMILES notation. Only a part is listed here, and it is no random draw. The source made the active and inactive calls.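 How the source made its calls: active means inhibition above a cutoff derived from the DMSO control wells (cut at about 28% in these data); inactive means the rest.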

The chains behind the UniProt entries cited, without tags or fusion partners.
UniProt O75030, whole entry: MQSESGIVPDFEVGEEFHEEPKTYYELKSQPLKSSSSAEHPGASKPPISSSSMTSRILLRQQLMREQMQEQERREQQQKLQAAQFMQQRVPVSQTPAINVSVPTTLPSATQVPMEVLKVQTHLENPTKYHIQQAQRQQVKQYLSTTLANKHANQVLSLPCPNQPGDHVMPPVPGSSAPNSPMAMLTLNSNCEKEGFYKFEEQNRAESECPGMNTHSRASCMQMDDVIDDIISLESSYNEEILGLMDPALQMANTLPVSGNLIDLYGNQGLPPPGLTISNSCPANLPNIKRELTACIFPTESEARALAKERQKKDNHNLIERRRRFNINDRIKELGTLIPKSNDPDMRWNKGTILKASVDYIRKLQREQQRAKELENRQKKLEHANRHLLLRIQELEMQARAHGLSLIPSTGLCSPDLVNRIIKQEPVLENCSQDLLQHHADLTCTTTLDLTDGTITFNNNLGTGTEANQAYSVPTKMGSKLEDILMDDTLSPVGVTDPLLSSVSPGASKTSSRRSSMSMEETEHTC

The source of these data is PubChem BioAssay AID1259372 (The Scripps Research Institute Molecular Screening Center, 2018).

The target in this experiment is Microphthalmia-associated transcription factor (Homo sapiens) (UniProt O75030). Description: blockers of human MITF dimerization – biochemical, AlphaScreen, triplicate, confirmation (AID 1259372). As to conditions: AlphaScreen MITF homodimerization, biotin/His-MITF beads; at 2.6 µM; active compounds read high. For orientation: Alpha assays give light when donor and acceptor beads are brought close together.
Take `CCOP(C)(=S)SCN(CC(=O)O)C(=O)OC` (stereo not drawn): the inhibition is inactive: 1.23%.

For `O=[N+]([O-])c1cc2[nH]c3cc([N+](=O)[O-])c([N+](=O)[O-])cc3c2cc1[N+](=O)[O-]`, the inhibition is active: 71.8%.

Turning to `CN(C)CCOC(=O)C(O)(c1ccccc1)C1CCCCC1` (stereo not drawn), the inhibition is inactive: -3.87%.

Broadly, the inhibition is the change of the read-out against control, counted positive when it falls.
